We go through one compound from article PMC6814236, “Monitoring and characterizing soluble and membrane-bound ectonucleotidases CD73 and CD39” (PLoS ONE, 2019).

By IC50 is commonly meant the midpoint of a concentration-inhibition curve.

The target in the test is T1, CD39 (His-Tag Human) (Homo sapiens, UniProt P49961).
T1 construct: His; purchased R&D Systems
T1 sequence (P49961 1-510): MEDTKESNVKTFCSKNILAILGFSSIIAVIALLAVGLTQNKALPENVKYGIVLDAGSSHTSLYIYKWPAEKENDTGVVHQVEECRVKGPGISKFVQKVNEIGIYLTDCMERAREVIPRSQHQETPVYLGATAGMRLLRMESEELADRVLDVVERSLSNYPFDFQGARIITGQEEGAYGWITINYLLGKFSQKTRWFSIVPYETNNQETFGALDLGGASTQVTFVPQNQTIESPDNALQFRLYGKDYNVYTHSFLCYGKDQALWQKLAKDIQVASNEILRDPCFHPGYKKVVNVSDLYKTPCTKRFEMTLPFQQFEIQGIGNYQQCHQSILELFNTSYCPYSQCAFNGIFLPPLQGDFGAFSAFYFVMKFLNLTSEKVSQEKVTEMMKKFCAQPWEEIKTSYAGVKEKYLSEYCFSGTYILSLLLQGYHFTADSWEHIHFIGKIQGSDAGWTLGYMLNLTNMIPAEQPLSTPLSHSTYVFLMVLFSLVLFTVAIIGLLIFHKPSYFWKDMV
The test is described as follows: Enzyme activity of purified CD39 with ATP or ADP as substrate. It is filed as biochemical. To be noted: 0.1 ng enzyme. Here is the method: • 2 Determination of enzyme activity of purified cytosolic cN-II. Activity of purified cN-II (Human cytosolic 5'-Nucleotidase) was determined using 25μl reaction buffer (50mM HEPES, pH 7.0, 100mM KCl, 20mM MgCl2, 5mM DTT, 2.5mM dATP, and 0.1mg/ml BSA) containing enzyme and AMP substrate at 10μM (96-well format). Reaction continued at 37°C for 60 minutes or for a certain time period and terminated by the addition of equal volume (25μl) of AMP-Glo™ Reagent I. Reactions were mixed well and incubated for additional 30 min at 23°C. This was followed by the addition of 50 μl of AMP Detection Solution (10μl of AMP-Glo™ Reagent II per ml of Kinase-Glo® One Solution) and incubated for additional 60 min at 23°C before reading luminescence. • 3 Determination of enzyme activity of purified CD39. […] When ATP is used as a substrate, an equal volume of Kinase-Glo® One Solution was added to CD39 reactions and incubated for 15 min before reading luminescence using a luminometer. When ADP is used as a substrate for CD39, after enzyme reaction completion, an equal volume of AMP Detection Solution with a known CD39 known inhibitor, such as POM 1 at 50μM final concentration was added. Reactions were mixed well and incubated for 60min before reading luminescence using luminometer. For enzyme dilution, reaction buffer can be used for dilution of enzymes.

Consider `CCN(CC)c1ncnc2c1ncn2[C@@H]1O[C@H](COP(=O)(O)OP(=O)(O)C(Br)(Br)P(=O)(O)O)[C@@H](O)[C@H]1O.[Na+].[Na+].[Na+]` [ARL 67156, 6-N,N-Diethyl-D-β,γ-dibromomethyleneATP trisodium salt], for which the IC50 (10 μM ADP as substrate) worked out at 280 µM and half-maximal inhibition (ATP (10 μM) as substrate) (IC50) required 4.48 µM.
